The values below come from PubChem BioAssay AID1974 (The Scripps Research Institute Molecular Screening Center, 2009).

The chains behind the UniProt entries cited, without tags or fusion partners. Where a name states a change or a piece, a line headed by the entry shows the natural chain unless it says otherwise.
UniProt P78417: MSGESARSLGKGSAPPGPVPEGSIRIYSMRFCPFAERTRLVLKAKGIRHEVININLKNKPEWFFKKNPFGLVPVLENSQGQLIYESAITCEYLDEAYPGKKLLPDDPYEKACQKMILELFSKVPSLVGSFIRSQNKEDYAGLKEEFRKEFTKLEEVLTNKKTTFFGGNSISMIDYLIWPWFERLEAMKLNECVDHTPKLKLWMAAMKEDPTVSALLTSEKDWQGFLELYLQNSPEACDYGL

As a reminder, the inhibition is the change of the read-out against control, counted positive when it falls.

The list shows a part of the results, in another mix than the full data. The source made the active and inactive calls.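 The calls were made as follows: active = inhibition above the campaign mean inhibition plus 3 SD (cut at about 35% in these data); inactive = the rest.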

In the test the target is Glutathione S-transferase omega-1 (Homo sapiens) (UniProt P78417). As to the kind of experiment: human GSTO1 enzyme inhibition – biochemical, fluorescence polarization, counter-screen for RBBP9 inhibitor project, primary screen (AID 1974).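 Also: 0% = GSTO1-1 with DMSO and 100% = wells lacking GSTO1-1 enzyme.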 The settings on record: recombinant GSTO1, activity-based probe fluorescence polarization; at 5.96 µM; hits give high values. For orientation: Polarisation of emitted light reports the rotation of a fluorescent probe.
As to `COc1ccc(N/C(=N/P(=O)(N2CCOCC2)N2CCOCC2)N2CCOCC2)cc1`, the inhibition was inactive: -0.26%.

Regarding `Cc1c2c(nc3ccccc13)SC(C(Cl)Cl)C2` (stereo not given), the inhibition was inactive: -2.67%.

Turning to `Cc1cc(=O)[nH]c(N[N+](=O)[O-])n1`, the inhibition is inactive: 0.51%.

Regarding `O=C(OC1CN2CCC1CC2)C12CC3CC(CC(C3)C1)C2` (stereo not given), the inhibition is inactive: -1.42%. In the case of `COc1cc(I)ccc1[As](=O)(O)O`, the inhibition was inactive: 1.13%. As for `COc1ccc2nc(NP(=O)(c3ccccc3)c3ccccc3)sc2c1`, the inhibition is inactive: -1.11%. In the case of `ClCCSc1nnc(-c2cccnc2)o1`, the inhibition was inactive: 0.54%.

With `CC(C)c1ccc(OP(=O)(Nc2ccccn2)Oc2ccccc2F)cc1` (stereo not given), the inhibition is inactive: -1.55%. Turning to `O=[N+]([O-])c1cc([N+](=O)[O-])c(-c2ccn[nH]2)s1`, the inhibition was inactive: 28.1%. Take `CCN(CC)C(=S)SC(NC=O)C(Cl)(Cl)Cl` (stereo not given): the inhibition was inactive: -3.56%. On to `CC(C)NC(=O)NP(=O)(Oc1ccccc1)Oc1ccccc1`, for which the inhibition is inactive: 6.62%. In the case of `C[As](=O)(O)c1cccc(C(=O)O)c1`, the inhibition is inactive: 5.39%.

In the case of `O=[As](O)(c1ccc(O)cc1)c1ccccc1O`, the inhibition was inactive: -3.27%.

In the case of `Cc1ccc(OP(=O)(Nc2ccc([N+](=O)[O-])cn2)Oc2ccc(C)cc2)cc1`, the inhibition was inactive: -0.85%. With `Cc1ccc2nc3c(c(C)c2c1)CC(C(Cl)Cl)S3` (stereo not given), the inhibition was inactive: 0.45%. For the compound `CCOC(=O)Nc1cccc([As](=O)(O)O)c1`, the inhibition was inactive: 3.32%.

Regarding `Cc1cc(SC(NC=O)C(Cl)(Cl)Cl)ncn1` (stereo not given), the inhibition was inactive: -4.92%.

As to `O=P(Nc1ccccn1)(c1cccc2ccccc12)c1cccc2ccccc12`, the inhibition was inactive: 0.95%.

For the compound `CCOC(=O)Nc1ccc([As](=O)(O)O)c(O)c1`, the inhibition is inactive: 5.72%. Consider `Cc1cc(SC(NC(=O)c2ccccc2)C(Cl)(Cl)Cl)nc(C(C)C)n1` (stereo not given), for which the inhibition was inactive: 2.97%. For the compound `O=C(OC1CN2CCC1CC2)c1cccc([N+](=O)[O-])c1` (stereo not given), the inhibition is inactive: 3.47%. Take `CCOC(=O)c1ccc(NC(=O)C(C)(CCl)SC)cc1` (stereo not given): the inhibition was inactive: -4.08%.

Regarding `CCC(C)N(CC(C)C)C(=S)SC(NC(C)=O)C(Cl)(Cl)Cl` (stereo not given), the inhibition is inactive: -44.4%. Turning to `COP1(=S)c2c(C)nn(CCC#N)c2N=C(c2ccc(F)cc2)N1C` (stereo not given), the inhibition is inactive: -1.75%. As for `O=C(Nc1ccncc1[N+](=O)[O-])c1ccc([N+](=O)[O-])cc1[N+](=O)[O-]`, the inhibition is inactive: 9.63%. Regarding `O=C(COc1ccccc1)OC1CN2CCC1CC2` (stereo not given), the inhibition was inactive: -4.22%. On to `COc1ccccc1CNC(=O)COC(=O)C(O)(c1ccccc1)c1ccccc1`, for which the inhibition was inactive: 1.58%. Next, `CN(C(=O)Cc1ccc(Cl)c(Cl)c1)[C@@H]1CCCC[C@H]1N1CCCC1`: inactive: 5.66%; `CC(C)/C=N\N=C(\N)N[N+](=O)[O-]`: inactive: 13.3%.

For `CC1(CBr)Cn2c(nc3ccccc3c2=O)S1` (stereo not given), the inhibition was inactive: 3.28%. On to `O=[As](O)(c1ccccc1Br)c1ccccc1Br`, for which the inhibition was inactive: -2.73%. Take `CCOP(=O)(NC(=NC(C)c1ccccc1)NC(C)c1ccccc1)OCC` (stereo not given): the inhibition is inactive: 9.51%. With `CCC1=CC2Cc3nc4ccc(Cl)cc4c(N)c3C(C1)C2` (stereo not given), the inhibition is inactive: -0.22%. The same measure for `O=P1(Nc2ccccn2)COc2ccccc2OC1`: inactive: 8.76%; for `CN(CCCl)Cc1cc(Cl)c(NC2=NCCN2)c(Cl)c1`: inactive: 5.16%.

`CCOP(=O)(Nc1ccc(C)cn1)OCC`: the inhibition was inactive: 8.04%. In the case of `CC(C)(C)C(=O)NC(Sc1ncccn1)C(Cl)(Cl)Cl` (stereo not given), the inhibition was inactive: 10.2%.

On to `Clc1n[nH]nc1-c1nn[nH][15n]1`, for which the inhibition was inactive: 0.44%.

With `O=P1(Nc2ncccn2)COc2ccccc2OC1`, the inhibition was inactive: 0.72%. In the case of `Nc1cccc([As](=O)(O)c2ccccc2)c1`, the inhibition was inactive: -16.8%. For the compound `O=P1(Nc2ccc(Br)cn2)COc2ccccc2OC1`, the inhibition was inactive: 3.17%. The same measure for `O=[As](O)(c1cccs1)c1cccs1`: inactive: 0.71%; for `Cc1ccc(OCC(=O)OC2CN3CCC2CC3)cc1` (stereo not given): inactive: -7.73%; for `Cc1ccc(C(=O)OC2CN3CCC2CC3)cc1` (stereo not given): inactive: 4.15%.

Regarding `CC1CCC(C(C)C)C(OP(=O)(Nc2ccccn2)c2ccccc2)C1` (stereo not given), the inhibition was inactive: 2.33%. On to `Cc1nn(-c2ccccc2)c2c1P(=O)(N1CCOCC1)N(C)C(c1ccccc1)=N2` (stereo not given), for which the inhibition is inactive: -2.12%. Turning to `CN(C)C1(CNC(=O)c2ccc(S(C)(=O)=O)cc2)CCCCC1`, the inhibition is inactive: 5.69%. As for `O=C(/C=C/c1ccccc1)OC1CN2CCC1CC2` (stereo not given), the inhibition is inactive: -2.6%.

Consider `NC(=O)Nc1ccc([As](=O)(O)O)cc1`, for which the inhibition is inactive: 5.41%. Take `CN(C(=O)Cc1ccccc1)[C@@H]1CC[C@]2(CCCO2)C[C@H]1N1CCCC1`: the inhibition was inactive: 8.17%.

Turning to `CCOP1(=S)c2c(C)nn(CCC#N)c2N=C(c2ccc(F)cc2)N1C` (stereo not given), the inhibition was inactive: -3.29%. As for `N#CCCN(C(=O)COC(=O)C(O)(c1ccccc1)c1ccccc1)c1ccc(F)cc1`, the inhibition is inactive: -9.29%.

For the compound `CN(C(=O)Cc1ccc(Cl)c(Cl)c1)[C@H]1CC[C@@]2(CCCO2)C[C@@H]1N1CCCC1`, the inhibition is inactive: 4.35%. With `CN(C)C(=O)c1cc([N+](=O)[O-])cc2c1-c1c(cc([N+](=O)[O-])cc1[N+](=O)[O-])C2=O`, the inhibition is active: 70.9%. Regarding `O=[N+]([O-])c1ccc2c(c1)nnn2O`, the inhibition was inactive: 8.67%. The same measure for `O=P(Nc1nccs1)(c1ccccc1)c1nc2ccccc2s1` (stereo not given): inactive: 17.7%. As for `O=P(Nc1nccs1)(Oc1ccccc1)Oc1ccccc1`, the inhibition was inactive: -0.79%. For `CCOP1(=S)c2c(C)nn(CCC#N)c2N=C(c2ccccc2F)N1C` (stereo not given), the inhibition is inactive: 3.05%.

Regarding `CS(=O)(=O)c1cc([N+](=O)[O-])c2no[n+]([O-])c2c1`, the inhibition was active: 39.7%.

On to `O=C(O)COc1ccc([As](=O)(O)O)cc1[N+](=O)[O-]`, for which the inhibition is inactive: -0.31%. Consider `Nc1ccccc1[As](=O)(O)c1ccccc1`, for which the inhibition was inactive: -3.43%.

With `Nc1cccc2c([As](=O)(O)O)cccc12`, the inhibition is active: 93.8%. On to `Cc1ccc(NCCc2c([N+](=O)[O-])cc([N+](=O)[O-])cc2[N+](=O)[O-])cc1`, for which the inhibition is active: 54.7%. As to `CCCOP(=S)(Nc1nc(N)cc(=O)[nH]1)OCCC`, the inhibition is inactive: -2.36%. Regarding `CCOP(=O)(Nc1cccc2ccccc12)OCC`, the inhibition is inactive: 1.14%.
